This is a selection; strong and weak results do not stand in their true shares. Results filed as inconclusive are left out. The source made the active and inactive calls. The call rests on the fitted dose curve; in most records, active means well fitted inhibition curve with a large enough effect; inconclusive means small, poorly fitted or top-dose-only effect; inactive means flat fitted curve, though single readings scatter.
assay: qHTS for Inhibitors of human tyrosyl-DNA phosphodiesterase 1 (TDP1): qHTS in cells in absence of CPT; conditions: DT40 Tdp1-/- hTDP1 cells, no CPT, ATP luminescence, 48 h; series mostly up to 46.2 µM; activity change, negative = growth inhibition: at the top concentration; further: nearly all actives have a fitted effect of over 55% in size
On the % scale 0 is the no-effect control and ±100 the full control effect; potency means the concentration at half of the fitted maximal effect.

Compound | activity change, negative = growth inhibition | Potency
C(Cc1nn[nH]n1)Cc1nn[nH]n1 | inactive: -9.98% | 
Nc1ccc([As](=O)(O)c2ccc([N+](=O)[O-])cc2)cc1 | inactive: -14.3% | 
O=C(OC1CN2CCC1CC2)c1cccc(Cl)c1 (configuration not stated) | inactive: 4.96% | 
O=[N+]([O-])c1ccc(O)c(/C=N/Nc2ccc([N+](=O)[O-])cc2[N+](=O)[O-])c1 |  | active: 2.59 µM
O=[N+]([O-])c1ncn(CCn2cnc([N+](=O)[O-])n2)n1 | inactive: 24.9% | 
CC(=O)NC(SC(=S)N(C)C)C(Cl)(Cl)Cl (configuration not stated) |  | active: 0.82 µM
O=[As](O)(c1ccccc1)c1ccc(O)cc1 | inactive: -0.375% | 
C[C@H]1OP(=O)(Oc2ccccc2)[C@H](O)[C@H](O)[C@H]1N=[N+]=[N-] (some centres not stated) | inactive: -0.17% | 
O=P(Nc1nc2ccccc2s1)(c1ccccc1)c1ccccc1 | inactive: -23.4% | 
CN(C(=O)Cc1ccccc1)[C@H]1CC[C@@]2(CCCO2)C[C@@H]1N1CCCC1 | inactive: -29.4% | 
Nc1ccc(CCCCOc2ccccc2)cc1 | inactive: -11.5% | 
O=P(Nc1ccccn1)(c1ccc(Br)cc1)c1ccc(Br)cc1 |  | active: 20.6 µM
CN(C)C1(CNC(=O)c2ccc(Cl)c(S(N)(=O)=O)c2)CCCCC1 | inactive: 3.16% | 
COc1cccc([N+](=O)[O-])c1[N+](=O)[O-] |  | active: 11.2 µM
c1nnnn1CCn1cnnn1 | inactive: 6.14% | 
CC(C)C(=O)NC(Sc1ccccc1)C(Cl)(Cl)Cl (configuration not stated) | inactive: -26% | 
O=P(Nc1nccs1)(c1ccccc1)c1ccccc1 | inactive: 4.24% | 
CC(=O)Nc1ccc(Oc2c([N+](=O)[O-])cc([N+](=O)[O-])cc2[N+](=O)[O-])cc1 |  | active: 11.6 µM
CC(=O)Nc1ccc([As](=O)(O)O)c(O)c1 | inactive: 4.13% | 

Compound | activity change, negative = growth inhibition | Potency
COC(=O)C1(C)COP(=O)(NCc2ccccc2)OC1 (configuration not stated) | inactive: -2.35% | 
CC(=O)c1ccc(N2CC2c2ccncc2)cc1 (configuration not stated) | inactive: -23.2% | 
N#C/C(=C\c1ccc(N(CCBr)CCBr)cc1)C(N)=O |  | active: 1.16 µM
C[C@H]1OP(=O)(Oc2ccccc2)C[C@@H]2O[C@@H]21 (some centres not stated) | inactive: 0.703% | 
C[C@@H]1C=CCP(=O)(Oc2ccccc2)O1 (some centres not stated) | inactive: 10.5% | 
CCc1cc(O)c([N+](=O)[O-])c(C)c1[N+](=O)[O-] | inactive: -2.77% | 
CC(C)(C)C(=O)NC(Sc1ccccc1)C(Cl)(Cl)Cl (configuration not stated) | inactive: 1.15% | 
CCOc1ccc(C2=NCC(CBr)S2)cc1 (configuration not stated) | inactive: -15.8% | 
O=P1(Nc2nc3ccc(Cl)cc3s2)COc2ccccc2O1 (configuration not stated) | inactive: -25.8% | 
O=c1c2cc([N+](=O)[O-])ccc2[nH]c2c([N+](=O)[O-])cc([N+](=O)[O-])cc12 |  | active: 0.517 µM
CN(C)C(=O)Oc1noc2ccccc12 | inactive: 9.17% | 
CC(NC(=O)COC(=O)C(O)(c1ccccc1)c1ccccc1)c1ccccc1 (configuration not stated) | inactive: -28.2% | 
Cc1ccccc1OP(=O)(Nc1ccccn1)Oc1ccccc1C |  | active: 20.6 µM
COC(=O)c1cc2c(s1)N=C(c1ccccc1)N(C)P2(=O)N1CCOCC1 (configuration not stated) | inactive: -8.66% | 
CCC(=O)N1C2C3N(C(=O)CC)C1C1N(C(=O)CC)C(C(N1C(=O)CC)N3C(=O)CC)N2C(=O)CC | inactive: -1.8% | 
O=C(OC1CN2CCC1CC2)c1ccccc1 (configuration not stated) |  | inactive
O=P1(N(CCCl)CCCl)OCCC2CCCCN21 (configuration not stated) | inactive: -8.55% | 
COC1C(OC(=O)/C=C/C=C/C=C/C=C/C(=O)O)CCC2(CO2)C1C1(C)OC1CC=C(C)C (configuration not stated) (tested in a mixture with another compound) |  | active: 0.0366 µM
CCNC(=S)/N=C(\N)N[N+](=O)[O-] | inactive: -12.2% | 

Compound | activity change, negative = growth inhibition | Potency
O=C(NC1CCS(=O)(=O)C1)NP(=S)(Oc1ccccc1)Oc1ccccc1 (configuration not stated) | inactive: -13.8% | 
O=[N+]([O-])c1cc([N+](=O)[O-])c2nc[nH]c2c1 |  | active: 0.112 µM
Cc1ccc(NP(=O)(Oc2cccc(C)c2)Oc2cccc(C)c2)nc1 | inactive: -25.6% | 
c1ccc(-c2nn[nH]n2)c(-c2nn[nH]n2)c1 | inactive: 9.95% | 
CCN(N=Nc1nonc1N)c1nonc1N | inactive: -11.3% | 
Nc1cccc2ccc([As](=O)(O)O)cc12 | inactive: -12.5% | 
Cc1ccc(NP(=O)(Oc2ccccc2F)Oc2ccccc2F)nc1 | inactive: -3.72% | 
Cc1cc(SC(NC(=O)c2ccc(F)cc2)C(Cl)(Cl)Cl)ncn1 (configuration not stated) |  | active: 13 µM
CCOP(=O)(Nc1ccccc1)OCC | inactive: -0.789% | 
CCCC1OP(N)(=O)OCC1CC (configuration not stated) | inactive: -1.86% | 
CC(=O)Nc1ccc([As](=O)(O)O)cc1 | inactive: -14.9% | 
O=C(O)c1ccccc1[As](=O)(O)O | inactive: -6.77% | 
CN(C)P(=O)(N(C)C)n1c(Nc2ccccc2)nnc1-c1ccccc1 |  | active: 16.4 µM
O=[N+]([O-])C1C(O)C(O)C([N+](=O)[O-])C(O)C1O (configuration not stated) | inactive: -3.96% | 
Nc1cc(N)c2nonc2c1[N+](=O)[O-] | inactive: 0.255% | 
CC(C)CC(=O)NC(Sc1ccc(Cl)cc1)C(Cl)(Cl)Cl (configuration not stated) | inactive: -24.9% | 
Oc1ccccc1CNc1ccccn1 | inactive: -5.58% | 
Cc1ccc(OP(=O)(Nc2nccs2)Oc2ccc(C)cc2)cc1 | inactive: -1.91% | 
CN1CCCC(OC(=O)C(c2ccccc2)c2ccccc2)C1 (configuration not stated) | inactive: -9.62% | 
